Measured affinities in a library of Ab-14 light chain variants

From the AlphaSeq antibody data of Engelhart et al. 2022 (doi:10.1038/s41597-022-01779-4), copy in the FLAb collection.

Target: peptide PDVDLGDISGINAS, taken from heptad repeat 2 (HR2) of SARS-CoV-2 spike.

Each scFv is VH, the linker GGGGSGGGGSGGGGS, VL, as in the parent Ab-14, and differs from it in the CDRs of the light chain only.
VH: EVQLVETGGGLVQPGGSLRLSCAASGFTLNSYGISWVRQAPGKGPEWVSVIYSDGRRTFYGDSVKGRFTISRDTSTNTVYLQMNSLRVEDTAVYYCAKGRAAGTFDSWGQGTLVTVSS
VL: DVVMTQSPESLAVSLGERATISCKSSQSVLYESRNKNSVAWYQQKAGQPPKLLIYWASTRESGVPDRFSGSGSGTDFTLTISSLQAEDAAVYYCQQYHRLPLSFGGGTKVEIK

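The parent was found by panning a naive human phage display library on the peptide. Variants in AAYL50 differ from the parent at up to three CDR positions; double and triple changes were sampled at random. In AlphaSeq, yeast of one mating type display the scFv and yeast of the other type display the target. Binding brings cells together so that they mate, and sequencing counts the barcode pairs among the diploids. Scores were corrected for input abundance and mapped to Kd with protein pairs of known affinity run in the same pool. Mating was done three times.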

Each variant is given by its three light chain CDRs, as the data file delimits them; those of the parent are KSSQSVLYESRNKNSVA, WASTRES, QQYHRLPLS.
Scale: log10 of Kd in nM, estimated from mating counts; low values are strong binders.
The mean shown is taken over the replicates in which the pair was detected.
An entry "nd" has no value in the source: the pair was not observed among the diploids in that replicate. This suggests poor binding but is not conclusive.
As a blank, each scFv also met three strains without target: over library AAYL50, 18% of these pairings were detected, typically at 4.19 and seldom below 2.99. For each scFv, signals with the empty controls are counted beside the result, with their mean in brackets.

CDR-L1	CDR-L2	CDR-L3	log10 Kd (nM) by replicate	log10 Kd (nM), mean	signal with controls
KSFQSVLYESRNKNSVA	WASTREN	QQYHHLPLS	1.23 / 1.36 / 1.51	1.37	1 of 9 (5.08)
KSSQSVLYEHRNKNSVA	WASTRES	QMPHRLPLS	nd / nd / nd	nd	0 of 9
KSSQSVLEDSRNKNSVA	WASTRES	QQYHRLFLS	nd / nd / 3.27	3.27	0 of 9
KSSQSVWYESRNKASVA	WASTRES	QQYHRLPCS	nd / nd / nd	nd	0 of 9
KSSQSVLYECRNKNSMA	WASTRES	QQYHRCPLS	nd / nd / 5.22	5.22	2 of 9 (3.31)
KYSQSVLYENRNFNSVA	WASTRES	QQYHRLPLS	0.41 / 1.14 / 0.88	0.81	0 of 9
TSSQSVLYESRNKNSVA	WACTVES	QQYHRLPLS	nd / 5.13 / nd	5.13	1 of 9 (3.06)
KSSQSVLYESRNKNSQA	WASTRES	RQYGRLPLS	nd / nd / nd	nd	2 of 9 (4.05)
KSSNSVLYESRNKNSVA	WASTGES	QQYHRLPPS	nd / nd / nd	nd	0 of 9
KSSQSVLYESRNKNSVA	WMSTRHS	QQYHLLPLS	6.64 / 3.89 / 5.37	5.30	7 of 9 (4.77)
KSSFSVLYESRNKNSVA	WASTRES	QQYMRLPLS	1.70 / 1.66 / 1.82	1.72	0 of 9
KSSQSVLYESRNKNYVV	WASTRES	QQYHRLELS	nd / nd / nd	nd	2 of 9 (4.68)
KSSQSNLYESRNKNSVA	WALTFES	QQYHRLPLS	nd / nd / nd	nd	1 of 9 (2.36)
KSSQSVLYESRNKNSVY	HASTRES	QFYHRLPLS	nd / nd / nd	nd	0 of 9
KSSQSVLYESRNKNSVA	NASTRPS	QQYHRLHLS	nd / nd / nd	nd	0 of 9
KSSTSVLCESRNKNSVA	WASTRES	QQYHRDPLS	4.47 / 3.33 / 2.51	3.44	0 of 9
KSSQSVLSLSRNKNSVA	WASSRES	QQYHRLPLS	2.30 / 2.05 / 2.30	2.22	0 of 9
KSSQSVLYESRNYNSVA	RASTRES	QQYHRLPVS	0.61 / 0.82 / 0.69	0.70	3 of 9 (4.62)
WTSQSVLYESRNKNSVW	WASTRES	QQYHRLPLS	nd / nd / 5.57	5.57	4 of 9 (4.11)
KSSQSVLYESRPKNSVA	WASTRED	QQYHRLPLS	nd / nd / nd	nd	0 of 9
KSSQSVLYESRNKNSVA	YGATRES	QQYHRLPLS	0.61 / 0.90 / 1.11	0.87	1 of 9 (3.20)
KSSQSHLYEPLNKNSVA	WASTRES	QQYHRLPLS	0.65 / 0.88 / 0.92	0.82	3 of 9 (4.15)
KSSRSVKYESRNKNSVA	WASTTES	QQYHRLPLS	nd / nd / nd	nd	0 of 9
KSSQSVLYETRNKNSVA	WASTRGS	QQYHRLPLS	1.67 / 1.89 / 2.01	1.85	2 of 9 (3.58)
KSSQSVLYECRNKESVA	WASTRES	QFYHRLPLS	nd / nd / 4.25	4.25	1 of 9 (2.96)
KSSQSVLYESRNKNSVA	WASTRHS	QQYRHLPLS	nd / nd / nd	nd	0 of 9
KSVQIVLYESRNKNSVA	WYSTRES	QQYHRLPLS	nd / nd / nd	nd	1 of 9 (4.35)
KSSQSVLYESRNSNSVA	WASTRWS	SQYHRLPLS	2.46 / nd / nd	2.46	0 of 9
KSSQSTRYESRNKNSHA	WASTRES	QQYHRLPLS	nd / 3.94 / nd	3.94	2 of 9 (4.10)
KSSQSVLLEFRNKVSVA	WASTRES	QQYHRLPLS	1.55 / 1.70 / 1.95	1.73	5 of 9 (4.63)
KSSQSCLYESRNKNLVA	WASTRES	QQYHRLPLS	nd / nd / nd	nd	0 of 9
KSSQSVMYESRNPRSVA	WASTRES	QQYHRLPLS	1.10 / 1.15 / 1.47	1.24	1 of 9 (3.44)
KSSQSGLYESRNKNKVW	WASTRES	QQYHRLPLS	4.12 / 3.76 / 3.99	3.96	2 of 9 (3.81)
KDSQSVLYESANKRSVA	WASTRES	QQYHRLPLS	1.23 / 1.27 / 1.22	1.24	4 of 9 (4.77)

Excerpt, the final 2 entries:

| CDR-L1 | CDR-L2 | CDR-L3 | log10 Kd (nM) by replicate | log10 Kd (nM), mean | signal with controls |
|---|---|---|---|---|---|
| KSSQSGLYESRNKNKVW | WASTRES | QQYHRLPLS | 4.12 / 3.76 / 3.99 | 3.96 | 2 of 9 (3.81) |
| KDSQSVLYESANKRSVA | WASTRES | QQYHRLPLS | 1.23 / 1.27 / 1.22 | 1.24 | 4 of 9 (4.77) |

For reference, the parent read 0.65 as the reference entry and 1.68 as a member of this library.